# Values quoted from earlier work in US20220023433A1, “Saponin Conjugates” (Sapreme Technologies B.V., priority 2018, published 2022).
# Details: monkeys; cited from earlier work
substance,measurement,value
ado-trastuzumab emtansine,enhancement of the tolerable dose of DM1 by conjugation to trastuzumab,at least two-fold
